US20040266784A1, “Calcium channel inhibitors comprising benzhydril spaced from piperazine” (priority 1998, published 2004)

Sequences of proteins named here, by UniProt entry; tags and fusion partners are left off. A change or cut given only in a name is not applied to a line headed by its entry. Residues count along the entry.
UniProt Q02294, whole entry: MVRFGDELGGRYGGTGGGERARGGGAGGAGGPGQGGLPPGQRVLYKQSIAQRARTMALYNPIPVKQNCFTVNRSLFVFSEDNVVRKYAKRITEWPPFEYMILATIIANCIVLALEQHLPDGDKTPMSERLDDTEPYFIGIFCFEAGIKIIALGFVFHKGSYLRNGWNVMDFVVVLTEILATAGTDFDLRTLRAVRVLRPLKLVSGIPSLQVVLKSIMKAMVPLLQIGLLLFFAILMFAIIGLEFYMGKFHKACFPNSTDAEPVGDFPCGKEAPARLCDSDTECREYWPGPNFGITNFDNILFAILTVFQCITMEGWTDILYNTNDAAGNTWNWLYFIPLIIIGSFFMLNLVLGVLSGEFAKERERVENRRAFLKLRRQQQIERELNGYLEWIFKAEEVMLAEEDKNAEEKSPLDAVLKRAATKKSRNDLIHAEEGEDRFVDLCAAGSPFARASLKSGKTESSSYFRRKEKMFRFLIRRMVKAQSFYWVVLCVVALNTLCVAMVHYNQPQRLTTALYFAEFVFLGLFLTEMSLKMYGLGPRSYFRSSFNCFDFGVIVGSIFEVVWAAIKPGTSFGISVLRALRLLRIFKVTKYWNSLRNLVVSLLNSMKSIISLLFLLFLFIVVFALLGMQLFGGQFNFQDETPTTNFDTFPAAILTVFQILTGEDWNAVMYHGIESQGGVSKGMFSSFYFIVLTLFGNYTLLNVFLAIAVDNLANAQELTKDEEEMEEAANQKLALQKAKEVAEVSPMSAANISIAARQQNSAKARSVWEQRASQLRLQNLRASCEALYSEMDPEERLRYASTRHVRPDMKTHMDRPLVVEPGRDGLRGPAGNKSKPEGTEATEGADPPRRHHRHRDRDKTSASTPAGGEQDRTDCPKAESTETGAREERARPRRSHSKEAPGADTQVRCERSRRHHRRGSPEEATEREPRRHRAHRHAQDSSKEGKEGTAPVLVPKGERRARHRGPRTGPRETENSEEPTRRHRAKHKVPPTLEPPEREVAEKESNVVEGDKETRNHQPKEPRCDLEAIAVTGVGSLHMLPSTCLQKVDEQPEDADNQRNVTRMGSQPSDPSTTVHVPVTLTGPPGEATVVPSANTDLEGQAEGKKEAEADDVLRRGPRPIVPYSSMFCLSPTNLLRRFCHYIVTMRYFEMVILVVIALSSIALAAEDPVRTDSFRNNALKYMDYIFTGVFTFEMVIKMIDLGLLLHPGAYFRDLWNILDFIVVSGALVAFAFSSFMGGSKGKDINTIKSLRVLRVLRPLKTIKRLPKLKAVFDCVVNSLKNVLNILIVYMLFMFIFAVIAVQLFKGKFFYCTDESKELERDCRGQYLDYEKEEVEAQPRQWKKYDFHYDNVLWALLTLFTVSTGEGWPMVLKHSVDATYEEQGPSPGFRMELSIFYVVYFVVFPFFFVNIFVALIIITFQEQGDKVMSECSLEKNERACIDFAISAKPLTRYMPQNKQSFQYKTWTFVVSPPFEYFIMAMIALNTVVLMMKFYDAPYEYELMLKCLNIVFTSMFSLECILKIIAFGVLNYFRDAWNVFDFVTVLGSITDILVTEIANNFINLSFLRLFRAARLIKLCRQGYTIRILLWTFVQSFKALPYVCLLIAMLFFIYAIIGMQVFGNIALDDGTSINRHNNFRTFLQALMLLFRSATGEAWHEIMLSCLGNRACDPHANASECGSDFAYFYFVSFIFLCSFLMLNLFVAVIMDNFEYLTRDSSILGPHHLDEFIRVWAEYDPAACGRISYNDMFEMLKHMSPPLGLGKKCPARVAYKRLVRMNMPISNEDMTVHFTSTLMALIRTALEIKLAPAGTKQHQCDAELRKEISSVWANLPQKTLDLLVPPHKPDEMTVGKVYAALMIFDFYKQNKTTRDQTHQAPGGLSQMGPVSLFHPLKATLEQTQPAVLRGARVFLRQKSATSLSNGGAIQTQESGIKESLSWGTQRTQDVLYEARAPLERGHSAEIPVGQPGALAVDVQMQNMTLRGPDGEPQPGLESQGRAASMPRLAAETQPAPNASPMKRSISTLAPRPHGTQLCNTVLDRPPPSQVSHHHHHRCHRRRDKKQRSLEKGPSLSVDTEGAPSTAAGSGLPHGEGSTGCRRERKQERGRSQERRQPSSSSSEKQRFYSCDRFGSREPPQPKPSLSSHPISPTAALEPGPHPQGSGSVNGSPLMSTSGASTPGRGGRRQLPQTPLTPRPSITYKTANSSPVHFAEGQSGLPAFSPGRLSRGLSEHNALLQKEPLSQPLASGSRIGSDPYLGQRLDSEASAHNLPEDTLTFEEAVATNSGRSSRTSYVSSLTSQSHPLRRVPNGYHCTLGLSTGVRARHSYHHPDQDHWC
UniProt P54290, 25-944 partner limits assumed: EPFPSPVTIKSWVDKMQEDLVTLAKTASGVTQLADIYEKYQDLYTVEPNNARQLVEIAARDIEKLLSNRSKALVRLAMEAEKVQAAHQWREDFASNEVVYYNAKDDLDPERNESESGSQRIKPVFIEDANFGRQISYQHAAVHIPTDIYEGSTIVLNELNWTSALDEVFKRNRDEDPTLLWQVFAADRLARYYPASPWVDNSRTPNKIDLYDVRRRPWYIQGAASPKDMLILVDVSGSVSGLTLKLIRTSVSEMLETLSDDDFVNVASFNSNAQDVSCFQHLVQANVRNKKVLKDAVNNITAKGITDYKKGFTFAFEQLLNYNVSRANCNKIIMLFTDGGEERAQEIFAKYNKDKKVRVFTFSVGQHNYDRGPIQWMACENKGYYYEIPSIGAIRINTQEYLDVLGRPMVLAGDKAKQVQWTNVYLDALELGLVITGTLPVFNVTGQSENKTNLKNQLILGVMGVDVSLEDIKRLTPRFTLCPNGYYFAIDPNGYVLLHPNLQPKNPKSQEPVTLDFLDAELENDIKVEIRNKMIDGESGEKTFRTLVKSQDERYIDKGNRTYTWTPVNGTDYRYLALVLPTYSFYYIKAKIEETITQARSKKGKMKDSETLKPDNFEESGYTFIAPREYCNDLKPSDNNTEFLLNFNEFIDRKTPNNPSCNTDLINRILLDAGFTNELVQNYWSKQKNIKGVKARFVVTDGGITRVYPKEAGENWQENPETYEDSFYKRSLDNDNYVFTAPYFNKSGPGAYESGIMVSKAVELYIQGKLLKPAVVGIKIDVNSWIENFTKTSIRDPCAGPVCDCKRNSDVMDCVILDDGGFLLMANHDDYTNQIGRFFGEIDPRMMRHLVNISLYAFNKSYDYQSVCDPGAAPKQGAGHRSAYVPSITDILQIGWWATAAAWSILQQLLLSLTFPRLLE
UniProt P54290, 945-1091 partner limits assumed: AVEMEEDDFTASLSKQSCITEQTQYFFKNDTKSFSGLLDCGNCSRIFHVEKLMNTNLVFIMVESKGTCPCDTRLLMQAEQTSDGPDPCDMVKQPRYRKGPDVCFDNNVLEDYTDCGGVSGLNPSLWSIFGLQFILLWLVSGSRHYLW
UniProt P54283, whole entry partner: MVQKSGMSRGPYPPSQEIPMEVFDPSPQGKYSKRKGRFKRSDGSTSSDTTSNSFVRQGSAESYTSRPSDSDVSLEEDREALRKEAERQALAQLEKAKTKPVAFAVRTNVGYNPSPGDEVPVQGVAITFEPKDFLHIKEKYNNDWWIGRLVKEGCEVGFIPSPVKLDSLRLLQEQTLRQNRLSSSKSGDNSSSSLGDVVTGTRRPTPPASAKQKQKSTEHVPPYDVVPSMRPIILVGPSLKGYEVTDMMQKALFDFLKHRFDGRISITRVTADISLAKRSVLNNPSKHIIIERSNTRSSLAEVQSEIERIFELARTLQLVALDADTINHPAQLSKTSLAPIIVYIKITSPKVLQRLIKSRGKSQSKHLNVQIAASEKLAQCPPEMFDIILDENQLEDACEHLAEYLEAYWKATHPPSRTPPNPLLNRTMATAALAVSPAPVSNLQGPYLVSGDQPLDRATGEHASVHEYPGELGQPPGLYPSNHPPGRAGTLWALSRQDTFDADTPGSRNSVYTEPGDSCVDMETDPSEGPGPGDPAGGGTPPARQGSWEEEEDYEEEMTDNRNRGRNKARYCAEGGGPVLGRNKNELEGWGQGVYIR

Target: rat N-type channels (α1B+α2δ+β1b subunits) (Rattus norvegicus, UniProt Q02294)
Assay: Whole cell patch clamp, N-type calcium channel block in HEK 293 cells
Format: cell-based
[1] = read-out: IC50 for N-type Calcium Channel Block (0.067 Hz), 0.067 Hz
[2] = read-out: IC50 for N-type Calcium Channel Block (0.2 Hz), 0.2 Hz
[3] = read-out: IC50 for N-type Calcium Channel Block (0.067 Hz), 0.067 Hz, tested form: HCl
[4] = read-out: IC50 for N-type Calcium Channel Block (0.2 Hz), 0.2 Hz, tested form: HCl
[5] = read-out: IC50 for N-type Calcium Channel Block (0.067 Hz), 0.067 Hz, tested form: 2HCl
[6] = read-out: IC50 for N-type Calcium Channel Block (0.2 Hz), 0.2 Hz, tested form: 2HCl
[7] = read-out: IC50 for N-type Calcium Channel Block (0.067 Hz), 0.067 Hz, tested form: 3HCl
[8] = read-out: IC50 for N-type Calcium Channel Block (0.2 Hz), 0.2 Hz, tested form: 3HCl

COc1cc(CNCCN2CCN(C(=O)CCCCC(c3ccc(F)cc3)c3ccc(F)cc3)CC2)cc(OC)c1OC
IC50 [1]: 179 nM
IC50 [2]: 141 nM

COc1c(C(C)(C)C)cc(C(=O)N2CCN(CCCCCC(c3ccc(F)cc3)c3ccc(F)cc3)CC2)cc1C(C)(C)C
IC50 [1]: 184 nM
IC50 [2]: 105 nM

COc1cc(CN2CCN(C(=O)CCCCCCCC(c3ccc(F)cc3)c3ccc(F)cc3)CC2)cc(OC)c1OC
IC50 [3]: 251 nM
IC50 [4]: 157 nM

Fc1ccc(C(CCCCCN2CCN(CCOc3ccc(F)cc3F)CC2)c2ccc(F)cc2)cc1
IC50 [1]: 96 nM
IC50 [2]: 51 nM

O=C(CCCC(c1ccc(F)cc1)c1ccc(F)cc1)CN1CCN(C(=O)c2ccc(OC(F)(F)F)cc2)CC1
IC50 [1]: 380 nM
IC50 [2]: 240 nM

COc1c(C(C)(C)C)cc(CN2CCN(C(=O)CCCCC(c3ccc(F)cc3)c3ccc(F)cc3)CC2)cc1C(C)(C)C
IC50 [1]: 191 nM
IC50 [2]: 98 nM

Cc1cc(OCCN2CCN(C(=O)CCCCC(c3ccc(F)cc3)c3ccc(F)cc3)CC2)c(C)c(C)c1NC(=O)OC(C)(C)C
IC50 [1]: 370 nM
IC50 [2]: 310 nM

Fc1ccc(C(CCCCCN2CCN(Cc3ccc4c(c3)OCO4)CC2)c2ccc(F)cc2)cc1
IC50 [5]: 182 nM
IC50 [6]: 134 nM

Fc1ccc(C(CCCCCN2CCN(CCNc3ccccc3)CC2)c2ccc(F)cc2)cc1
IC50 [7]: 280 nM
IC50 [8]: 173 nM

COc1cc(C(=O)N2CCN(CCCCCC(c3ccc(F)cc3)c3ccc(F)cc3)C(=O)C2)cc(OC)c1OC
IC50 [1]: 260 nM

COc1cc(CN2CCN(CCCCOC(c3ccc(F)cc3)c3ccc(F)cc3)CC2)cc(OC)c1OC
IC50 [5]: 575 nM
IC50 [6]: 334 nM

COc1cc(CN2CCN(CCCCCC(c3ccc(F)cc3)c3ccc(F)cc3)CC2=O)cc(OC)c1OC
IC50 [1]: 150 nM
IC50 [2]: 85 nM

Fc1ccc(C(CCCCCN2CCN(C3c4ccccc4Sc4ccccc43)CC2)c2ccc(F)cc2)cc1
IC50 [1]: 122 nM
IC50 [2]: 101 nM

O=C(CCCCC(c1ccc(F)cc1)c1ccc(F)cc1)N1CCN(C(=O)c2ccc(Br)cc2)CC1
IC50 [1]: 312 nM
IC50 [2]: 250 nM

Fc1ccc(C(CCCCCN2CCN(CCSc3ccccc3)CC2)c2ccc(F)cc2)cc1
IC50 [1]: 150 nM
IC50 [2]: 90 nM

COc1ccc(OCCN2CCN(CCCCCC(c3ccc(F)cc3)c3ccc(F)cc3)CC2)cc1
IC50 [5]: 169 nM
IC50 [6]: 91 nM

CC(C)(C)c1cc(CN2CCN(CCCCCC(c3ccc(F)cc3)c3ccc(F)cc3)CC2)cc(C(C)(C)C)c1O
IC50 [5]: 62 nM
IC50 [6]: 44 nM

O=C(CCCCC(c1ccc(F)cc1)c1ccc(F)cc1)N1CCN(C(=O)c2cc(Br)c(O)c(Br)c2)CC1
IC50 [1]: 242 nM
IC50 [2]: 192 nM

COc1c(C(C)(C)C)cc(CN2CCN(CCCCCC(c3ccc(F)cc3)c3ccc(F)cc3)CC2)cc1C(C)(C)C
IC50 [5]: 132 nM
IC50 [6]: 100 nM

O=C(CCCCC(c1ccc(F)cc1)c1ccc(F)cc1)N1CCN(CCSc2nc3ccccc3s2)CC1
IC50 [1]: 430 nM
IC50 [2]: 280 nM

CN(C)CCOc1c(C(C)(C)C)cc(C(=O)N2CCN(C(=O)CCCCC(c3ccc(F)cc3)c3ccc(F)cc3)CC2)cc1C(C)(C)C
IC50 [1]: 346 nM
IC50 [2]: 134 nM

CC(C)(C)c1cc(CN2CCN(CCCCCC(c3ccc(F)cc3)c3ccc(F)cc3)CC2)cc(C(C)(C)C)c1
IC50 [5]: 181 nM
IC50 [6]: 142 nM

CC(C)(C)c1cc(CN2CCN(C(=O)CCCCC(c3ccc(F)cc3)c3ccc(F)cc3)CC2)cc(C(C)(C)C)c1O
IC50 [1]: 302 nM
IC50 [2]: 175 nM

O=C(CCCCC(c1ccc(F)cc1)c1ccc(F)cc1)N1CCN(CCOc2ccccc2)CC1
IC50 [1]: 168 nM
IC50 [2]: 109 nM

CC(C)(C)c1cc(C(=O)N2CCN(C(=O)CCCCC(c3ccc(F)cc3)c3ccc(F)cc3)CC2)cc(C(C)(C)C)c1
IC50 [1]: 356 nM
IC50 [2]: 297 nM

CN(C)CCOc1c(C(C)(C)C)cc(CN2CCN(CCCCCC(c3ccc(F)cc3)c3ccc(F)cc3)CC2)cc1C(C)(C)C
IC50 [7]: 82 nM
IC50 [8]: 41 nM

Fc1ccc(C(CCCCCN2CCN(c3ncccn3)CC2)c2ccc(F)cc2)cc1
IC50 [5]: 337 nM
IC50 [6]: 268 nM

COc1cc(OCCN2CCN(C(=O)CCCCC(c3ccc(F)cc3)c3ccc(F)cc3)CC2)cc(OC)c1OC
IC50 [3]: 525 nM
IC50 [4]: 270 nM

COc1c(C(C)(C)C)cc(C(=O)N2CCN(C(=O)CCCCC(c3ccc(F)cc3)c3ccc(F)cc3)C(=O)C2)cc1C(C)(C)C
IC50 [1]: 610 nM
IC50 [2]: 410 nM

CC(C)(C)c1ccc(CN2CCN(CCCCCC(c3ccc(F)cc3)c3ccc(F)cc3)CC2)cc1
IC50 [5]: 748 nM
IC50 [6]: 354 nM

Fc1ccc(C(CCCCCN2CCN(CCOc3ccc(Cl)cc3Cl)CC2)c2ccc(F)cc2)cc1
IC50 [1]: 599 nM
IC50 [2]: 354 nM

Fc1ccc(OCCN2CCN(CCCCCC(c3ccc(F)cc3)c3ccc(F)cc3)CC2)cc1
IC50 [1]: 113 nM
IC50 [2]: 71 nM

O=C(CCCCC(c1ccc(F)cc1)c1ccc(F)cc1)N1CCN(CCSc2ccccc2)CC1
IC50 [1]: 125 nM
IC50 [2]: 60 nM

O=C(CCCCC(c1ccc(F)cc1)c1ccc(F)cc1)N1CCN(c2ncccn2)CC1
IC50 [3]: 362 nM
IC50 [4]: 257 nM

Fc1ccc(C(CCCCCN2CCN(CCOc3ccccc3)CC2)c2ccc(F)cc2)cc1
IC50 [1]: 399 nM
IC50 [2]: 267 nM

COc1ccc(OCCN2CCN(C(=O)CCCCC(c3ccc(F)cc3)c3ccc(F)cc3)CC2)cc1
IC50 [3]: 436 nM
IC50 [4]: 259 nM

Cc1cc(OCCN2CCN(CCCCCC(c3ccc(F)cc3)c3ccc(F)cc3)CC2)c(C)c(C)c1N
IC50 [7]: 480 nM
IC50 [8]: 340 nM

O=C(CCCCC(c1ccc(F)cc1)c1ccc(F)cc1)N1CCN(C2c3ccccc3Sc3ccccc32)CC1
IC50 [1]: 403 nM
IC50 [2]: 296 nM

O=C(CCCCC(c1ccc(F)cc1)c1ccc(F)cc1)N1CCN(CCOc2ccc(Cl)cc2Cl)CC1
IC50 [1]: 445 nM
IC50 [2]: 168 nM

O=C(CCCCC(c1ccc(F)cc1)c1ccc(F)cc1)N1CCN(CCOc2ccc(F)cc2F)CC1
IC50 [3]: 200 nM
IC50 [4]: 93 nM

COc1cc(C(=O)N2CCN(CCCCOC(c3ccc(F)cc3)c3ccc(F)cc3)CC2)cc(OC)c1OC
IC50 [3]: 364 nM
IC50 [4]: 236 nM

Like-named read-outs stand apart in the source and are kept apart here.
